Experimental data as given in patent publication US20230338564A1, “NEODEGRADER CONJUGATES” (Orum Therapeutics, Inc., priority 2020, published 2023).

What was measured:
Format in all cases: cell-based
HCC1569 cell line = assay: In vitro antiproliferation assay, General Procedure 2 (CCK-8); conditions: breast, primary metaplastic carcinoma
Excerpt: (§1) Cell Culture: Cell lines were obtained from the American Type Culture Collection (ATCC, Manassas, VA, USA) or Deutsche Sammlung von Mikroorganismen und Zellkulturen (DSMZ, Braunschweig, Germany) and maintained according to the culturing conditions specified by ATCC or DSMZ. Cells were thawed out and maintained in culture for at least two passages before proceeding with experimental conditions.
(§2) Cytotoxicity assays: For adherent cell lines, the cells were dissociated with enzyme-free PBS-based cell dissociation buffer (Gibco, USA) and plated on tissue culture treated 96-well flat bottom polystyrene plates (Costar, Corning, USA) at appropriate cell densities depending on doubling time of the cells. 18 hours after plating, cells were treated with test articles at appropriate concentrations starting at 100 nM and diluted in 4-fold serial dilutions. For suspension cell lines, the cells were seeded on the same day of treatment and cells were treated as described above. Adherent cells were treated for 5 days and suspension cells were treated for 3 days. Cell proliferation was assessed using the Cell Counting Kit-8 (CCK-8, Dojindo Laboratories, Japan) and measurements were obtained using the Promega GloMax Discover plate reader (Promega, USA). Data were analyzed using GraphPad Prism software (GraphPad Software, San Diego, CA). All data points were obtained from technical triplicates and the experiments were validated using three biological replicates.

NCI-N87 cell line = assay: as above; conditions: stomach, gastric carcinoma
Excerpt: as §1, §2

MDA-MB-361 cell line = assay: as above; conditions: breast, adenocarcinoma
Excerpt: as §1, §2

ZR-75-30 cell line = assay: as above; conditions: breast, ductal carcinoma
Excerpt: as §1, §2

HCC2218 cell line = assay: as above; conditions: breast, primary ductal carcinoma
Excerpt: as §1, §2

AU565 cell line = assay: as above; conditions: breast, adenocarcinoma
Excerpt: as §1, §2

SK-BR-3 cell line = assay: as above; conditions: breast, adenocarcinoma (pleural effusion)
Excerpt: as §1, §2

[1] = test system: SK-BR-3 breast cancer cell line; assay: In vitro antiproliferation assay, General Procedure 1 (WST-8); conditions: for IC50: Breast, conjugates DAR 8
Procedure: (§3) The ability of neoDegrader conjugates to inhibit cell growth was measured using in vitro anti-proliferation assay. […] Conjugates were diluted in complete cell growth medium using 4-fold serial dilutions and 100 µL was added per well. […] Viability of remaining cells was determined by colorimetric WST-8 assay (Dojindo Molecular Technologies, Inc., Rockville, MD, US). WST-8 was added to 10% of the final volume and plates were incubated at 37° C. in a humidified 5% CO2 incubator for 2-4 hours. Plates were analyzed by measuring the absorbance at 450 nm (A450) in a multi-well plate reader. Background A450 absorbance of wells with media and WST-8 only was subtracted from all values. The percent viability was calculated by dividing each treated sample value by the average value of wells with untreated cells. The percent viability value was plotted against the test sample concentration in a semi-log plot for each treatment. IC50 values were calculated automatically.

[2] = test system: NCI-N87 gastric cancer cell line; assay: as above; conditions: NCI-N87 cells; neoDegrader conjugates (DAR 8) versus comparators; FIGS. 16 and 17
Procedure: as §3

[3] = test system: HL-60 (acute myeloid leukemia) cell line; assay: as above; conditions: HL-60 cells; neoDegrader conjugates versus comparators; FIGS. 9-12
Procedure: The ability of neoDegrader conjugates to inhibit cell growth was measured using in vitro anti-proliferation assay. Target cells were plated at 1,500 - 5,000 cells per well in 100 µL complete cell growth medium (RPMI 1640, 10% fetal bovine serum and 1% Penicillin-streptomycin for most cell lines; Hybri-care medium, 1.5 g/L sodium bicarbonate, 10% fetal bovine serum and 1% Penicillin-streptomycin for BT-474; RPMI 1640, 20% fetal bovine serum and 1% Penicillin-streptomycin for HL-60). Conjugates were diluted in complete cell growth medium using 4-fold serial dilutions and 100 µL was added per well. The final concentration typically ranged from 1 × 10^-8 M to 1.53 × 10^-13 M or 1 × 10^-7 M to 1.53 × 10^-12 M. Cells were incubated at 37° C. in a humidified 5% CO2 incubator for 5 days. Viability of remaining cells was determined by colorimetric WST-8 assay (Dojindo Molecular Technologies, Inc., Rockville, MD, US). WST-8 was added to 10% of the final volume and plates were incubated at 37° C. in a humidified 5% CO2 incubator for 2-4 hours. Plates were analyzed by measuring the absorbance at 450 nm (A450) in a multi-well plate reader. Background A450 absorbance of wells with media and WST-8 only was subtracted from all values. The percent viability was calculated by dividing each treated sample value by the average value of wells with untreated cells. […] IC50 values were calculated automatically.

Daudi lymphoma cell line = assay: as above; conditions: Daudi cells; rituximab neoDegrader conjugates versus comparators; FIGS. 14 and 15
Procedure: as §3

[4] = test system: Ramos (non-Hodgkins lymphoma) cell line; assay: as above; conditions: Ramos cells; rituximab neoDegrader conjugates versus comparators; FIG. 13
Procedure: as §3

With Enhertu [reference compound] the IC50 (HCC1569 cell line) was 0.837 nM, the IC50 (NCI-N87 cell line) was 0.882 nM and the IC50 (MDA-MB-361 cell line) was 4.74 nM. For the same substance, the IC50 (ZR-75-30 cell line) was 9.42 nM, the IC50 (HCC2218 cell line) was 4.36 nM and the IC50 (AU565 cell line) was 0.559 nM. For the same substance, the IC50 (SK-BR-3 cell line) was 0.753 nM.
With “Kadcyla: antibody drug conjugate Kadcyla [reference compound]” the IC50 [1] was 0.008 nM.
Trastuzumab [reference compound] was tested, and the IC50 [1] was 0.086 nM, the “anti-proliferative activity compared, in words” value ([1]; SK-BR-3 cells, neoDegrader conjugates (DAR 8) versus comparators, FIGS. 7 and 8) was “significantly less active” and the “anti-proliferative activity compared, in words” value [2] was “significantly less active”.
In the case of Trastuzumab-Compound (Ia), the “antiproliferative activity compared, in words” value [3] is reported as “significantly less active”, the “antiproliferative activity compared, in words” value (Daudi lymphoma cell line) is reported as “less active” and the IC50 [1] is reported as 0.015 nM. For the same substance, the “antiproliferative activity compared, in words” value [4] was “less active”.
